The target of the assay is Cathepsin S (Homo sapiens, UniProt P25774). The assay can be described thus: Inhibition of cathepsin S. In outline: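 Cathepsin S 0.7 nM with inhibitor (added in DMSO), 5 min at 37 °C in pH 6.1 phosphate buffer containing NaCl, DTT, EDTA and Tween-20. Substrate Cbz-Leu-Arg-AMC 2.5 µM, read 5 min (ex 355/em 450 nm). Five concentrations covering 10–90% inhibition, in duplicate. IC50 from V_i/V_o plot, converted to K_i via IC50 − E_t/2.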

Chains of the proteins cited; added tags and fusions are not shown.
UniProt P25774, whole entry: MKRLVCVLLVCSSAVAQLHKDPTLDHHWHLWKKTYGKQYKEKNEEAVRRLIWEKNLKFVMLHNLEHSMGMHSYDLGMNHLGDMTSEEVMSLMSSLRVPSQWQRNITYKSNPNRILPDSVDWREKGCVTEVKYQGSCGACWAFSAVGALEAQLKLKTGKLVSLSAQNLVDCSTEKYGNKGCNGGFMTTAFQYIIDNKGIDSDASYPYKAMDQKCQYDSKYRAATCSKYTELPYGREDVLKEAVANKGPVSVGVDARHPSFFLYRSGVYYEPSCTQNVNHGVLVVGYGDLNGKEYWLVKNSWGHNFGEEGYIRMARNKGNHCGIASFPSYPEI

By Ki is commonly meant a dissociation constant, usually derived from enzyme kinetics or from competition with a known ligand. Low values mean a stronger hold on the target, high ones a looser hold on the target.

Turning to `O=CCOc1ccccc1-c1ccc(F)c(F)c1F`, the affinity, expressed as Ki, was 490 nM.
